This passage reports Kd, EC50 and Ki results from US20020081661A1 (Synaptic Pharmaceutical Corporation, priority 1992, published 2002).

Amino acid sequences for entries named in this document (tags omitted). Residues count along the entry.
UniProt Q62758, 1-387 isoform Q62758-2: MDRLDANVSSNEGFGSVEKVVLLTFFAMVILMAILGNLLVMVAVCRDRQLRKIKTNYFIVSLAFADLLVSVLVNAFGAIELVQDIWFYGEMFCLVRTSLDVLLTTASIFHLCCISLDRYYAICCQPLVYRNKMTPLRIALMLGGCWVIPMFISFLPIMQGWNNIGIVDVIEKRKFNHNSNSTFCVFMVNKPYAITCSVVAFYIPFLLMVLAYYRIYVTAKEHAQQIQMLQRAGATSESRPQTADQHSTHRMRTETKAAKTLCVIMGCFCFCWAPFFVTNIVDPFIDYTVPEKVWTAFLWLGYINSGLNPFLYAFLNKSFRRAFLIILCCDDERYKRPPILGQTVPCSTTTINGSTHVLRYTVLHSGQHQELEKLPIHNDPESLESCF

For assay [1], the target named is T1, rat 5-HT4 receptor S10-87 (CG-7) (Rattus norvegicus, UniProt Q62758). Nature of the assay: [3H]5-HT radioligand binding (saturation and displacement), membranes of Cos-7 cells transiently expressing rat S10-87 (CG-7).
Assay [2] has as its target T2, rat 5-HT4 (CG-7) receptor (Rattus norvegicus, UniProt Q62758).
T2 construct: two individual full length cDNA clones, S10-87 and S10-95, were isolated; expressed in transfected cells; host or cells: COS-7 (transient, DEAE-dextran)
In words: cAMP formation in intact Cos-7 cells transiently expressing CG-7. The format is cell-based. As to conditions: CG-7, stimulation of basal cAMP release; means ± S.E.M. of three experiments. On the procedure: (§1) Measurement of cAMP Formation: The transiently transfected Cos-7 cells were incubated in Dulbecco's modified Eagle's medium, 5 mM theophylline, 10 mM Hepes (4-[2-Hydroxyethyl]-1-piperazineethanesulfonic acid), 10 μM pargyline, and/or appropriate concentrations of antagonists for 20 minutes at 37° C., 5% CO2. […] The media was aspirated and the reaction stopped by the addition of 100 mM HCl. The plates were stored at 4° C. for 15 minutes, centrifuged for 5 minutes, 500×g to pellet cellular debris, and the supernatant aliquotted and stored at −20° C. prior to assessment of cAMP formation by radioimmunoassay (cAMP Radioimmunoassay kit, Advanced Magnetics, Cambridge, Mass.). Radioactivity was quantitated using a Packard COBRA Auto Gamma Counter equipped with data reduction software. Functional data was fitted to a four parameter logistic equation to obtain response parameters (EC50, Emax, nH; Inplot, GraphPad, San Diego, Calif.).

The target of assay [3] is T3, rat 5-HT4 (CG-8) receptor (Rattus norvegicus, UniProt Q62758).
T3 construct: two individual full length cDNA clones, S10-87 and S10-95, were isolated; expressed in transfected cells; host or cells: COS-7 (transient, DEAE-dextran)
Nature of the assay: cAMP formation in intact Cos-7 cells transiently expressing CG-8. The assay is classed as cell-based. Particulars: CG-8, stimulation of basal cAMP release; means ± S.E.M. of three experiments. How it is done: as §1
Background: Cyclic AMP is a second messenger, typically raised through Gs and lowered through Gi signalling.

Assay [4] addresses T4, rat 5-HT4 receptor S10-95 (CG-8) (Rattus norvegicus, UniProt Q62758). In words: biochemical.
Assay [5] has as its target T1, rat 5-HT4 receptor S10-87 (CG-7). In words: [3H]GR113808 binding (saturation and displacement), COS-7 membranes, rat clone CG-7. On the set-up: two individual full length cDNA clones, S10-87 and S10-95, were isolated; expressed in transfected cells; host or cells: COS-7 (transient, DEAE-dextran).
In assay [6] the target is T4, rat 5-HT4 receptor S10-95 (CG-8). In words: [3H]GR113808 binding (saturation and displacement), COS-7 membranes, rat clone CG-8. On the set-up: two individual full length cDNA clones, S10-87 and S10-95, were isolated; expressed in transfected cells; host or cells: COS-7 (transient, DEAE-dextran).

Molecules are shown by their SMILES.

What is called Kd is a measure of binding affinity in units of concentration. A low value points to tighter binding. Turning to `NCCc1c[nH]c2ccc(O)cc12` [[^3H]5-HT], binding in assay [1] was put at a Kd of 0.00787 ± 6e-05 µM.
As a reminder, the EC50 is the concentration giving half of the maximal effect. Low readings indicate an effect from little substance, high ones a need for much substance. For the compound `NCCc1c[nH]c2ccc(O)cc12` [5-HT, serotonin], the EC50 in assay [2] was 0.026 ± 0.003 µM; in assay [3], 0.051 ± 0.007 µM. Further, the Ki in assay [4] was 0.0064 ± 0.0005 µM; in assay [1], 8.6 ± 0.6 nM; in assay [1] (K1 (nM), CG-7, binding data using [3H]5-HT, Table 4), 8.6 ± 0.6 nM; in assay [5] (CG-7, 0.2-0.4 nM [3H]GR113808, single experiment, read-out: Affinity estimate K1) it was 0.237 µM; in assay [5] (CG-7, [3H]GR113808, read-out: KH (affinity for the high affinity state)), 0.0026 µM; in assay [5] (CG-7, [3H]GR113808, read-out: KL (affinity for the low affinity state)), 0.357 µM. Also, the Ki was 0.116 µM in assay [6] (Affinity estimate K1, CG-8, 0.2-0.4 nM [3H]GR113808, single experiment); 0.0025 µM in assay [6] (KH (affinity for the high affinity state), CG-8, [3H]GR113808); 0.197 µM in assay [6] (read-out: KL (affinity for the low affinity state), CG-8, [3H]GR113808).
